# Measured affinities in a library of Ab-14 heavy chain variants

Values reported by Engelhart et al. 2022, doi:10.1038/s41597-022-01779-4 (FLAb copy).

Binding partner: SARS-CoV-2 spike HR2 peptide, sequence PDVDLGDISGINAS.

Each scFv is VH, a 15-residue (Gly4Ser)3 linker, VL, as in the parent Ab-14, and differs from it in the CDRs of the heavy chain only.
VH: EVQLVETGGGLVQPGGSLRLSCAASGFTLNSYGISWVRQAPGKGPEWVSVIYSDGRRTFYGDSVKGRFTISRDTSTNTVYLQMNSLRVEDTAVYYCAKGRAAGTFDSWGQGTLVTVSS
VL: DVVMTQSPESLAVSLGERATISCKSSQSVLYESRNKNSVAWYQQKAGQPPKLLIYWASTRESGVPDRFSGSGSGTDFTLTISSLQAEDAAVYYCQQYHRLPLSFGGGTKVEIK

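The parent was found by panning a naive human phage display library on the peptide. Variants in AAYL49 differ from the parent at up to three CDR positions; double and triple changes were sampled at random. AlphaSeq pools MATa yeast showing the antibodies with MATalpha yeast showing the peptide. After mating in shaken culture at 30 °C for 16 h, diploids were selected and their barcode pairs sequenced. A regression on co-assayed BCL2-family reference pairs converts the normalised counts of each replicate to an apparent Kd. Each pool was mated in three replicate cultures.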

Each variant is given by its three heavy chain CDRs, as the data file delimits them; those of the parent are GFTLNSYGIS, VIYSDGRRTFYGDSVK, GRAAGTFDS. All variants listed here change G26 of the VH, counted from its first residue. Each Kd is an estimate from the mating assay, the geometric mean of the replicates in which the pair was seen; lower is stronger. A pair that was not seen in any replicate is written "nd"; this usually means weak binding, but a binder can also be missed. Three control strains display no target. For library AAYL49, 15% of the pairings with them gave a signal, with a median of 11 µM and one signal in twenty below 680 nM, so weak values seen in few replicates may be background. The control count says in how many pairings with the empty strains this scFv gave a signal.

* KFTLNSYGIS / VIYSDVRRTFYGDSVK / HRAAGTFDS = 13 µM (2 of 3 replicates; controls 2 of 9)
* NFTTNSYGIS / VIYSDGRRIFYGDSVK / GRAAGTFDS = nd (0 of 3 replicates; controls 1 of 9)
* RFTLNSIGIS / VIYSDGQRTFYGDSVK / GRAAGTFDS = 320 µM (1 of 3 replicates; controls 2 of 9)
* HFTANSYGIS / VIYSDGRRTFYGDSVK / GRAAGYFDS = 45 µM (2 of 3 replicates; controls 2 of 9)
* YFTLNSYGIS / VYYCDGRRTFYGDSVK / GRAAGTFDS = 420 µM (1 of 3 replicates; controls 0 of 9)
* RFTLNSYGIS / VIYSDGRRTFYGESVK / PRAAGTFDS = 27 nM (3 of 3 replicates; controls 1 of 9)
* SKTLNSYGIS / VIYSDGRRTFYGDSVK / GRAAGTFDS = 41 nM (3 of 3 replicates; controls 0 of 9)
* KFTLNSYTIS / VIYSDGRRTFYKDSVK / GRAAGTFDS = nd (0 of 3 replicates; controls 1 of 9)
* FFTLNSYGIS / VIKSDGRRTFYGDSVK / GRAGGTFDS = 200 µM (1 of 3 replicates; controls 1 of 9)
* MFTLNSYGIS / VIYSDGRRTFYGSSVK / GRAAGTCDS = nd (0 of 3 replicates; controls 0 of 9)
* RFTLNSYGIS / VIYSDGRRTFYGDSVK / GRHAGTFDS = nd (0 of 3 replicates; controls 0 of 9)
* EFTLRSYGIS / VIYSDGRRTFYGDSVK / GRAAGTFPS = nd (0 of 3 replicates; controls 0 of 9)
* NFTPNLYGIS / VIYSDGRRTFYGDSVK / GRAAGTFDS = 3.4 µM (1 of 3 replicates; controls 2 of 9)
* PFKLNSYVIS / VIYSDGRRTFYGDSVK / GRAAGTFDS = nd (0 of 3 replicates; controls 2 of 9)
* KFTLNSDGIS / VIYSDGRRTFYGDSVK / GQAAGTFDS = nd (0 of 3 replicates; controls 2 of 9)
* HFTLNSYGIS / VIYSDGRRTFYGDSVK / GRAAGTFDS = 50 nM (3 of 3 replicates; controls 0 of 9)
* DFTENSYGIS / VIYSDGRRTFYGDSVM / GRAAGTFDS = nd (0 of 3 replicates; controls 2 of 9)
* FFTLNSYGIS / VIYSDGRRTFYGDWVA / GRAAGTFDS = 64 µM (2 of 3 replicates; controls 3 of 9)
* MFTLNSYGIS / VIYSAGRRTFYGDHVK / GRAAGTFDS = nd (0 of 3 replicates; controls 0 of 9)
* MFTLNSYGIS / VIYSDNRRTFYGDSVK / GRAAGTNDS = nd (0 of 3 replicates; controls 1 of 9)
* WFTLNSYGIS / VIYSDGRGGFYGDSVK / GRAAGTFDS = nd (0 of 3 replicates; controls 5 of 9)

The 2 strongest on average among those seen in every replicate, once more:

* RFTLNSYGIS / VIYSDGRRTFYGESVK / PRAAGTFDS: 27 nM (3 of 3 replicates; controls 1 of 9)
* SKTLNSYGIS / VIYSDGRRTFYGDSVK / GRAAGTFDS: 41 nM (3 of 3 replicates; controls 0 of 9)

For reference, the parent read 4.4 nM as the reference entry and 13 µM (one replicate of three) as a member of this library.